Literature values as cited in PMC3631442.

Protein sequences, listed by entry. Tags and fused reporters are not part of them. Lines headed by an entry give the natural chain unless they say otherwise; changes in a name come on top. Residues count along the entry.
UniProt O43521, 141-166: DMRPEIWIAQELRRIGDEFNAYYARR
UniProt Q16548: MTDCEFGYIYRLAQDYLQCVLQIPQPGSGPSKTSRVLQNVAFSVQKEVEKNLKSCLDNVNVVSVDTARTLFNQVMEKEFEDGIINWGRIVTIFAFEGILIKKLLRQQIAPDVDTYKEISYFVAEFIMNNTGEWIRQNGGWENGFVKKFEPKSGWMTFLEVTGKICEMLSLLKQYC

Target: Bim BH3 BH3 (Homo sapiens) (UniProt O43521)
Conditions: cited from earlier work

## Bfl-1 (from UniProt Q16548)
  Kd: 50 nM
